Measurements from US20260207704A1, “STAPLED PEPTIDES AND METHODS THEREOF” (priority 2022, published 2026).

By UniProt entry, the sequences of proteins in these tests, tags left out.
UniProt P35222, whole entry: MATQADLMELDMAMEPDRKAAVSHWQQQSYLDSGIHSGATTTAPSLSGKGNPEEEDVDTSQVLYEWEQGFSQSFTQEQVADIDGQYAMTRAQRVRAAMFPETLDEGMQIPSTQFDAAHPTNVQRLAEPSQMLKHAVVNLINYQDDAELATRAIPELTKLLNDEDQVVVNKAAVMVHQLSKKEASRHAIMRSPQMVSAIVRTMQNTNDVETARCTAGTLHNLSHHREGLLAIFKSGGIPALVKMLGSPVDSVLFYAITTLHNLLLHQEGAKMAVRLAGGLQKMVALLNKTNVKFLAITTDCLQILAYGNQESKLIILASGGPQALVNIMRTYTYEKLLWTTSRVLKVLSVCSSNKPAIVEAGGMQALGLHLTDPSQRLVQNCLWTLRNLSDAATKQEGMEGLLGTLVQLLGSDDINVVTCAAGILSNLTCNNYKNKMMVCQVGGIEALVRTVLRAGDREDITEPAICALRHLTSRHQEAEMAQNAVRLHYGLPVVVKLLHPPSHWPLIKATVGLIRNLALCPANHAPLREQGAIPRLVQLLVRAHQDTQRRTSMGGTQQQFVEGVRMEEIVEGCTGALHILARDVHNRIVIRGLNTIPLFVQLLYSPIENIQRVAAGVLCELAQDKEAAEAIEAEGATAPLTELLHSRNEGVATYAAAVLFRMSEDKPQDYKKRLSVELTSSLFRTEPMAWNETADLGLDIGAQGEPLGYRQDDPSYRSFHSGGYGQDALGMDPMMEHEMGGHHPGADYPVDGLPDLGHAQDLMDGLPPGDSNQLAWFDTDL

How the values were obtained:
beta-catenin = beta-catenin (Homo sapiens, UniProt P35222); experiment: fluorescence polarization binding to beta-catenin; settings: beta-Catenin FP IC50 (nM)
beta-catenin/TCF4 = molecular target: T1, beta-catenin/TCF4 (Homo sapiens, UniProt P35222); experiment: Nano-BRET target engagement assay (HEK293 cells); type: cell-based
T1 construct: expressed in transfected cells; host or cells: HEK293 cells

Compound | IC50 (beta-catenin) | IC50 (beta-catenin/TCF4)
CC(=O)N1CCC[C@]12CC=CCCCC1(CCCC=CCCCOC(=O)N3CC[C@@]4(C3)NC(=O)[C@H](CSCc3ccccc3CSC[C@@H](C(=O)N[C@@H](C)C(N)=O)NC(=O)[C@H](Cc3csc5ccccc35)NC(=O)[C@H](Cc3ccccc3C(F)(F)F)NC4=O)NC(=O)[C@H](Cc3ccccc3)NC(=O)[C@H](C)NC(=O)C(C)(C)NC(=O)[C@H](Cc3cccc(C(=O)O)c3)NC(=O)[C@H](CC(=O)O)NC1=O)NC(=O)[C@H](CC(C)(C)C)NC(=O)[C@H](CC(=O)O)NC2=O (stereo partly drawn) [I-376, Ac-PL3-Asp-Npg-B5-Asp-3COOHF-Aib-Ala-Phe-[oXyl]Cys-PyrS2-2F3MeF-BztA-Cys-Ala-NH2] | 200 to 750 nM | > 10000 nM
CC(=O)N1CCC[C@]12CC=CCCCC1(CCCC=CCCCOC(=O)N3CC[C@@]4(C3)NC(=O)[C@H](CCCCNC(=O)CC[C@@H](C(=O)N[C@@H](CCCCNC(=O)CCOCCOCCOCCOCCOCCOCCOCCOCCNC(=O)CCCC[C@@H]3SC[C@@H]5NC(=O)N[C@@H]53)C(N)=O)NC(=O)[C@H](Cc3csc5ccccc35)NC(=O)[C@H](Cc3ccsc3)NC4=O)NC(=O)[C@H](Cc3ccccc3)NC(=O)[C@H](C)NC(=O)C(C)(C)NC(=O)[C@H](Cc3cccc(C(=O)O)c3)NC(=O)[C@H](CCC(=O)O)NC1=O)NC(=O)[C@H](CC(C)(C)C)NC(=O)[C@H](CCC(=O)O)NC2=O (relative stereo) [I-518, Ac-PL3-Glu-Npg-B5-Glu-3COOHF-Aib-Ala-Phe-Lys*3-PyrS2-3Thi-BztA-GlnR*3-[BiotinPEG8]Lys-NH2] | > 1000 nM | –
CC(=O)N1CCC[C@]12CCCCCCC13CCCCCCCCOC(=O)N4CC[C@@]5(C4)NC(=O)[C@H](CCCCNC(=O)CC[C@@H](C(=O)N[C@@H](C)C(N)=O)NC(=O)[C@H](Cc4csc6ccccc46)NC(=O)[C@H](Cc4ccccc4C(F)(F)F)NC5=O)NC(=O)[C@H](Cc4ccccc4)NC(=O)[C@H](C)NC(=O)[C@H](CCCCNC(=O)CC[C@H](NC(=O)[C@H](CC(=O)O)NC2=O)C(=O)N1)NC(=O)[C@H](Cc1cccc(C(=O)O)c1)NC(=O)[C@H](CC(=O)O)NC3=O (relative stereo) [I-79, Ac-PL3-Asp-GlnR**3-B5-Asp-3COOHF-Lys**3-Ala-Phe-Lys*3-PyrS2-2F3MeF-BztA-GlnR*3-Ala-NH2] | 50 to 200 nM | –
CC(=O)N1CCC[C@]12CC=CCCCC1(CCCC=CCCCOC(=O)N3CC[C@@]4(C3)NC(=O)[C@H](CC(C)C)NC(=O)[C@H](Cc3ccccc3)NC(=O)[C@H](C)NC(=O)[C@H](CCC(=O)N3CCC(CC3)CN(C)C(=O)CC[C@@H](C(=O)N[C@@H](C)C(N)=O)NC(=O)[C@H](Cc3csc5ccccc35)NC(=O)[C@H](Cc3ccccc3C(F)(F)F)NC4=O)NC(=O)[C@H](Cc3cccc(C(=O)O)c3)NC(=O)[C@H](CC(=O)O)NC1=O)NC(=O)[C@H](CC(C)(C)C)NC(=O)[C@H](CC(=O)O)NC2=O (single isomer, unassigned) [I-95, Ac-PL3-Asp-Npg-B5-Asp-3COOHF-GlnR-Ala-Phe-Leu-PyrS2-2F3MeF-BztA-[4mampiperidine]GlnR-Ala-NH2] | 50 to 200 nM | –
CC(=O)N1CCC[C@]12CC=CCCCC1(CCCC=CCCCOC(=O)N3CC[C@@]4(C3)NC(=O)[C@H](CSc3c(F)c(F)c(c(F)c3F)-c3c(F)c(F)c(c(F)c3F)SC[C@@H](C(=O)N[C@@H](C)C(N)=O)NC(=O)[C@H](Cc3csc5ccccc35)NC(=O)[C@H](Cc3ccccc3C(F)(F)F)NC4=O)NC(=O)[C@H](Cc3ccccc3)NC(=O)[C@H](C)NC(=O)C(C)(C)NC(=O)[C@H](Cc3cccc(C(=O)O)c3)NC(=O)[C@H](CC(=O)O)NC1=O)NC(=O)[C@H](CC(C)(C)C)NC(=O)[C@H](CC(=O)O)NC2=O (single isomer, unassigned) [I-341, Ac-PL3-Asp-Npg-B5-Asp-3COOHF-Aib-Ala-Phe-[8FBB]Cys-PyrS2-2F3MeF-BztA-Cys-Ala-NH2] | – | > 10000 nM
CC(=O)N1CCC[C@]12CC=CCCCC1(CCCC=CCCCOC(=O)N3CC[C@@]4(C3)NC(=O)[C@H](CSc3c(F)c(F)c(c(F)c3F)-c3c(F)c(F)c(c(F)c3F)SC[C@@H](C(=O)N[C@@H](C)C(N)=O)NC(=O)[C@H](Cc3csc5ccccc35)NC(=O)[C@H](Cc3ccccc3C(F)(F)F)NC4=O)NC(=O)[C@H](Cc3ccccc3)NC(=O)[C@H](C)NC(=O)C(C)(C)NC(=O)[C@H](Cc3cccc(C(=O)O)c3)NC(=O)[C@H](CC(=O)O)NC1=O)NC(=O)[C@H](CC(C)(C)C)NC(=O)[C@H](CC(=O)O)NC2=O (single isomer, unassigned) [I-340, Ac-PL3-Asp-Npg-B5-Asp-3COOHF-Aib-Ala-Phe-[8FBB]Cys-PyrS2-2F3MeF-BztA-Cys-Ala-NH2] | 200 to 750 nM | –

Results, then the compound that gave them:

IC50 (beta-catenin) | IC50 (beta-catenin/TCF4) | Compound
< 50 nM | > 10000 nM | CC(=O)N1CCC[C@]12CC=CCCCC1(CCCC=CCCCOC(=O)N3CC[C@@]4(C3)NC(=O)[C@H](CCCCNC(=O)CC[C@@H](C(=O)N[C@@H](C)C(N)=O)NC(=O)[C@H](Cc3csc5ccccc35)NC(=O)[C@H](Cc3ccsc3)NC4=O)NC(=O)[C@H](Cc3ccccc3)NC(=O)[C@H](C)NC(=O)[C@H](CCC(=O)N3CCOCC3)NC(=O)[C@H](Cn3cc(CC(C)(C)C(=O)O)nn3)NC(=O)[C@H](CC(=O)O)NC1=O)NC(=O)[C@H](CC(C)(C)C)NC(=O)[C@H](CC(N)=O)NC2=O (relative stereo) [I-319, Ac-PL3-Asn-Npg-B5-Asp-[CH2CMe2CO2H]TriAzDap-MorphGln-Ala-Phe-Lys*3-PyrS2-3Thi-BztA-GlnR*3-Ala-NH2]
< 50 nM | > 10000 nM | CC(=O)N1CCC[C@]12CC=CCCCC1(CCCC=CCCCOC(=O)N3CC[C@@]4(C3)NC(=O)[C@H](CC(C)C)NC(=O)[C@H](Cc3ccccc3)NC(=O)[C@H](C)NC(=O)[C@H](CCCCNC(=O)C(C)(C)C(=O)NCCCC[C@@H](C(N)=O)NC(=O)[C@H](Cc3csc5ccccc35)NC(=O)[C@H](Cc3ccsc3)NC4=O)NC(=O)[C@H](Cc3cccc(C(=O)O)c3)NC(=O)[C@H](CC(=O)O)NC1=O)NC(=O)[C@H](CC(C)(C)C)NC(=O)[C@H](CC(=O)O)NC2=O (stereo partly drawn) [I-47, Ac-PL3-Asp-Npg-B5-Asp-3COOHF-[Me2Mal]-Lys-Ala-Phe-Leu-PyrS2-3Thi-BztA-Lys-NH2]
< 50 nM | > 10000 nM | CCNC(=O)[C@H](CO)NC(=O)[C@H](CCCN1CCOCC1)NC(=O)[C@@H]1CCC(=O)NCCCC[C@@H]2NC(=O)[C@H](Cc3ccccc3)NC(=O)[C@H](C)NC(=O)C(C)(C)NC(=O)[C@H](Cc3cccc(C(=O)O)c3)NC(=O)[C@H](CC(=O)O)NC(=O)C3(CCCC=CCCCOC(=O)N4CC[C@@](C4)(NC2=O)C(=O)N[C@@H](Cc2ccccc2C(F)(F)F)C(=O)N[C@@H](Cc2csc4ccccc24)C(=O)N1)CCCC=CC[C@]1(CCCN1C(C)=O)C(=O)N[C@@H](CC(=O)O)C(=O)N[C@@H](CC(C)(C)C)C(=O)N3 (relative stereo) [I-229, Ac-PL3-Asp-Npg-B5-Asp-3COOHF-Aib-Ala-Phe-Lys*3-PyrS2-2F3MeF-BztA-GlnR*3-MorphNva-Ser-NHEt]
< 50 nM | 3000 to 10000 nM | CC(=O)N1CCC[C@]12CC=CCCCC1(CCCC=CCCCOC(=O)N3CC[C@@]4(C3)NC(=O)[C@H](CCCCNC(=O)CC[C@@H](C(=O)N[C@@H](C)C(N)=O)NC(=O)[C@H](Cc3csc5ccccc35)NC(=O)[C@H](Cc3ccccc3C(F)(F)F)NC4=O)NC(=O)[C@H](Cc3ccccc3)NC(=O)[C@H](C)NC(=O)C(C)(C)NC(=O)[C@H](Cc3cccc(C(=O)O)c3O)NC(=O)[C@H](CC(=O)O)NC1=O)NC(=O)[C@H](CC(C)(C)C)NC(=O)[C@H](CC(=O)O)NC2=O (relative stereo) [I-193, Ac-PL3-Asp-Npg-B5-Asp-20H3COOHF-Aib-Ala-Phe-Lys*3-PyrS2-2F3MeF-BztA-GlnR*3-Ala-NH2]
50 to 200 nM | > 10000 nM | CC(=O)N1CCC[C@]12CC=CCCCC1(CCCC=CCCCOC(=O)N3CC[C@@]4(C3)NC(=O)[C@H](CCCCNC(=O)CC[C@@H](C(=O)N[C@@H](C)C(N)=O)NC(=O)[C@H](Cc3csc5ccccc35)NC(=O)[C@H](Cc3ccsc3)NC4=O)NC(=O)[C@H](Cc3ccccc3)NC(=O)[C@H](C)NC(=O)C(C)(C)NC(=O)[C@H](Cn3cc(CC(C)(C)C(=O)O)nn3)NC(=O)[C@H](CC(=O)O)NC1=O)NC(=O)[C@H](CC(C)(C)C)NC(=O)[C@H](CO)NC2=O (relative stereo) [I-316, Ac-PL3-Ser-Npg-B5-Asp-[CH2CMe2CO2H]TriAzDap-Aib-Ala-Phe-Lys*3-PyrS2-3Thi-BztA-GlnR*3-Ala-NH2]
50 to 200 nM | > 10000 nM | CC(=O)N1CCC[C@]12CC=CCCCC1(CCCC=CCCCOC(=O)N3CC[C@@]4(C3)NC(=O)[C@H](CCCCNC(=O)CC[C@@H](C(=O)N[C@@H](C)C(N)=O)NC(=O)[C@H](Cc3csc5ccccc35)NC(=O)[C@H](Cc3ccsc3)NC4=O)NC(=O)[C@H](Cc3ccccc3)NC(=O)[C@H](C)NC(=O)[C@H](CCC(=O)N3CCOCC3)NC(=O)[C@H](Cn3cc(CC(C)(C)C(=O)O)nn3)NC(=O)[C@H](CC(=O)O)NC1=O)NC(=O)[C@H](CC(C)(C)C)NC(=O)[C@H](CO)NC2=O (relative stereo) [I-320, Ac-PL3-Ser-Npg-B5-Asp-[CH2CMe2CO2H]TriAzDap-MorphGln-Ala-Phe-Lys*3-PyrS2-3Thi-BztA-GlnR*3-Ala-NH2]
< 50 nM | 3000 to 10000 nM | CC(=O)N1CCC[C@]12CC=CCCCC1(CCCC=CCCCOC(=O)N3CC[C@@]4(C3)NC(=O)[C@H](CC(C)C)NC(=O)[C@H](Cc3ccccc3)NC(=O)[C@H](C)NC(=O)[C@H](CCCCNC(=O)CCC(=O)NCCCC[C@@H](C(N)=O)NC(=O)[C@H](Cc3csc5ccccc35)NC(=O)[C@H](Cc3ccsc3)NC4=O)NC(=O)[C@H](Cc3cccc(C(=O)O)c3)NC(=O)[C@H](CC(=O)O)NC1=O)NC(=O)[C@H](CC(C)(C)C)NC(=O)[C@H](CC(=O)O)NC2=O (stereo partly drawn) [I-46, Ac-PL3-Asp-Npg-B5-Asp-3COOHF-[succinate]-Lys-Ala-Phe-Leu-PyrS2-3Thi-BztA-Lys-NH2]
< 50 nM | – | COc1cccc(C[C@@H]2NC(=O)[C@H](C)NC(=O)C(C)(C)NC(=O)[C@H](Cc3cccc(C(=O)O)c3)NC(=O)[C@H](CC(=O)O)NC(=O)C3(CCCC=CCCCOC(=O)N4CC[C@@]5(C4)NC(=O)[C@H](CCCCNC(=O)CC[C@@H](C(=O)N[C@@H](C)C(N)=O)NC(=O)[C@H](Cc4csc6ccccc46)NC(=O)[C@H](Cc4ccsc4)NC5=O)NC2=O)CCCC=CC[C@]2(CCCN2C(C)=O)C(=O)N[C@@H](CC(=O)O)C(=O)N[C@@H](CC(C)(C)C)C(=O)N3)c1 (single isomer, unassigned) [I-582, Ac-PL3-Asp-Npg-B5-Asp-3COOHF-Aib-Ala-30MeF-Lys*3-PyrS2-3Thi-BztA-GlnR*3-Ala-NH2]
